Earlier results on one substance are cited in patent US8252895B2, “Cyclic peptide compounds” (Astellas Pharma Inc., priority 2005, dated 2012).

The data set deals with HCV. To be noted: M. Berenguer et al., J. Hepatol 32, 673-684 (2000); cited from earlier work.

For the substance Cyclosporin A, the “effect on HCV in transplant patients” value is “caused HCV to multiply in transplant patients”.
